# Laboratory results from patent US20060247231A1, “Amide and ester matrix metalloproteinase inhibitors” (Warner-Lambert Company LLC, priority 2003, published 2006).
# Molecular target: MMP-13 catalytic domain (MMP-13CD) (Homo sapiens, UniProt P45452)
# Test: MMP-13 catalytic domain inhibition (Biological Methods 1, 2, or 5)
# Conditions: read-out: MMP-13CD IC50
# Procedure: Thiopeptolide substrates show virtually no decomposition or hydrolysis at or below neutral pH in the absence of a matrix metalloproteinase enzyme. A typical thiopeptolide substrate commonly utilized for assays is Ac-Pro-Leu-Gly-thioester-Leu-Leu-Gly-OEt. A 100 μL assay mixture will contain a suitable amount of the MMP enzyme such as an amount described in Ye Qi-Zhuang, et al., 1996, supra, 50 mM of N-2-hydroxyethylpiperazine-N′-2-ethanesulfonic acid buffer (“HEPES,” pH 7.0), 10 mM CaCl2, 100 μM thiopeptolide substrate, and 1 mM 5,5′-dithio-bis-(2-nitro-benzoic acid) (DTNB). The thiopeptolide substrate concentration may be varied, for example from 10 to 800 μM to obtain Km and Kcat values. The change in absorbance at 405 nm is monitored on a Thermo Max microplate reader (molecular Devices, Menlo Park, Calif.) at room temperature (22° C.). The calculation of the amount of hydrolysis of the thiopeptolide substrate is based on E412=13600 M^−1 cm^−1 for the DTNB-derived product 3-carboxy-4-nitrothiophenoxide. […]
# Some representative compounds of Formula I have been evaluated according to Biological Method 1 for their ability to inhibit MMP-13 and other MMP enzymes, including MMP-1, MMP-2, MMP-3, MMP-7, MMP-8, MMP-9, MMP-12, MMP14, and MMP-17. […]
structure (smiles),measurement,value
COc1ccc(CC(=O)Nc2ccc3ncn(Cc4ccc(C(=O)O)cc4)c(=O)c3c2)cc1,IC50,35 nM
